# Assay results reported in PubChem BioAssay AID900 (National Center for Advancing Translational Sciences (NCATS), 2007).
# Protein sequences, listed by entry. Tags and fused reporters are not part of them. Lines headed by an entry give the natural chain unless they say otherwise; changes in a name come on top.
# UniProt P29466: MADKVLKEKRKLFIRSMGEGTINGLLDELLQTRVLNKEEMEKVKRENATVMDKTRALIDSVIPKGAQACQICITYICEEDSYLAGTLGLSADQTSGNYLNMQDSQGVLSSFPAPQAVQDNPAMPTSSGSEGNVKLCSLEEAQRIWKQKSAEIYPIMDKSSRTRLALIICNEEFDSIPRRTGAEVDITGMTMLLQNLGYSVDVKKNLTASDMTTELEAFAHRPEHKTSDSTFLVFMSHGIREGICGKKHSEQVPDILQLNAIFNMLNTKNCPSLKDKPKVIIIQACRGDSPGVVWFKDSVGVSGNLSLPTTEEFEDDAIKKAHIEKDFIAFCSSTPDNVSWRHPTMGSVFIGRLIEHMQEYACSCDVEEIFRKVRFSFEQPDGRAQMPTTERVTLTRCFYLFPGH
# Where “and” joins values, the source holds several entries; their conditions need not be identical. Equal values may be shown once. Only a part is listed here, and it is no random draw. Calls of active or inactive are those of the source. Calls come from the whole dose curve; as a rule, active = well fitted inhibition curve with a large enough effect; inconclusive = small, poorly fitted or top-dose-only effect; inactive = flat fitted curve, though single readings scatter.
# Target: Caspase-1 (Homo sapiens) (UniProt P29466)
# Experiment: qHTS Assay for Allosteric/Competitive Inhibitors of Caspase-1;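 note: plate controls were vehicle for no effect and no substrate for full effect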
# Conditions: Caspase-1 enzyme, Ac-WEHD-AFC fluorogenic rate
# Source text: NIH Molecular Libraries Screening Centers Network [MLSCN]
# NIH Chemical Genomics Center [NCGC]
# PI Name: Dr. James Wells,
# Dr. Enrique Perez-Paya, Dr.Janice Williams, Dr. Dennis Wolan, a person
# The caspases (Cysteine Aspartyl Protease) comprise a related family of 14 dimeric proteases that are critical mediators of apoptosis (programmed cell death) and inflammation. The caspases represent an important class of drug targets for stroke, ischemia, cancer and inflammatory diseases. […] One goal of this project was to identify compounds that act as allosteric inhibitors via stabilizing the procaspase form of the enzyme. Previous work in Well's laboratory has shown that such allosteric inhibitors can be identified and these act by binding at the dimer interface of enzyme (Hardy, Lam et al., 2004).
# The biochemical assay was configured using purified caspase 1 at a high enzyme concentration to promote formation of the homodimers and thus facilitate the identification of allosteric inhibitors. The overall goal was to identify reversible inhibitors with better drug-like properties than the currently available set of aspartyl-containing peptidomimetics that covalently bind the active site. Caspase 1 was assayed using the profluorescent substrate Ac-WEHD-AFC. After initiation of the assay with substrate the plates were rapidly read using an automated robotic system (Kalypsys, Inc.) to maintain consistent timing. A kinetic mode of detection was used where the initial rate was collected (estimated final product formation was ~10%). Compounds were screened as a concentration-titration series that ranged from 57 uM to 0.7 nM. Below is the protocol used for caspase 1.
# NCGC Assay Protocol Summary:
# Caspase 1 was prepared in buffer (50 mM HEPES pH 7.5, 50 mM KCl, 200 mM NaCl, 10 mM DTT, 0.1% CHAPS) at a concentration of 66.6 nM and 3 uL was dispensed to all wells using black solid Kalypsys 1536-well plates. 20 nL of DMSO containing compounds was added using a pin-tool (Kalypsys Inc.) to columns 5-48. Then 20 nL of DMSO solution from a control plate was added to columns 1-4. Controls were: Column 1, 16 point titration with each concentration in duplicate (1:1 dilutions in DMSO; final starting concentration was 57 uM) of the caspase 1 inhibitor Ac-WEHD-CHO (Alexis Biochemicals); Column 2, a 16 point titration with each concentration in duplicate of the free AFC fluorophore prepared in DMSO (Alexis Biochemicals), final starting was 40 uM; Column 3 neutral (DMSO only) control; Column 4: DMSO alone, to serve as a negative control (no substrate was added). Then 1 uL of 20 uM the substrate Ac-WEHD-AFC (Alexis Biochemicals) prepared in the same buffer was dispensed to all wells except columns 2 and 4 and the plates were immediately transferred (< 1 min) to the Viewlux. The plates were then exposed using 405 nm excitation/520 nm emission filters for 4 sec and read at 20 sec intervals for 3 min. Final enzyme concentration was 50 nM and the final substrate concentration was 5 uM.
# Concentration-response curves were fitted to the data calculated from slope of the linear regression of fluorescent intensity versus time (the rate). The concentration-effect curves were then classified based on curve quality (r2), response magnitude and degree of measured activity. […] Inconclusive compounds had appreciable concentration-dependent effects on both the measured rate and the interpolated basal fluorescence intensity at the start of the reaction but where the basal fluorescent intensity was marginal (e.g. < 10-fold). Inconclusive compounds also encompass highly fluorescent compounds (>100-fold increases in fluorescent intensities values relative to controls) where artificial concentration-dependent decreases in the rate occurred at high compound concentrations due to fluorescent interferences.
# Keywords: Caspase 1, proteases, profluorescent, MLSMR, MLSCN, NIH Roadmap, qHTS, NCGC
# [1] = at 57.5 µM (top of the series) unless noted
smiles,measurement,setting,value
CN(C(=O)Cc1ccc(Cl)c(Cl)c1)[C@H]1CCCC[C@@H]1N1CCCC1,"activity change, negative = inhibition",[1],inactive: 2.5% and inactive: 0.376% and inactive: -0.0742%
[N-]=[N+]=NCC(O)CN=[N+]=[N-] (configuration not stated),"activity change, negative = inhibition",[1],inactive: -1.8% [at 11.5 µM]
C(Cc1nn[nH]n1)c1nn[nH]n1,"activity change, negative = inhibition",[1],inactive: -1.87% [at 11.5 µM]
O=[N+]([O-])c1ccc(C[As](=O)(O)O)cc1,"activity change, negative = inhibition",[1],inactive: -1.14% [at 11.5 µM]
Cc1c2non([O-])c-2c(C)[n+](=O)[n+]1[O-],"activity change, negative = inhibition",[1],inactive: -0.295%
NCC[C@@H](N)CSP(=O)(O)O,"activity change, negative = inhibition",[1],inactive: 0.401% [at 11.5 µM]
CCc1nc2c(n1)c1c(non1O)c1c2no[n+]1[O-],"activity change, negative = inhibition",[1],inactive: -10.2%
O=C(CO)Nc1ccc([As](=O)(O)O)cc1,"activity change, negative = inhibition",[1],inactive: -4.29% [at 11.5 µM]
CN(C(=O)Cc1ccccc1)[C@@H]1CC[C@@]2(CCCO2)C[C@H]1N1CCCC1,"activity change, negative = inhibition",[1],inactive: -0.445%
Cc1cc([N+](=O)[O-])cc([N+](=O)[O-])c1O,"activity change, negative = inhibition",[1],inactive: -0.568%
[N-]=[N+]=Nc1ccc([As](=O)(O)O)cc1,"activity change, negative = inhibition",[1],inactive: 1.15% [at 11.5 µM]
O=C(OC1CN2CCC1CC2)c1cccc(Cl)c1 (configuration not stated),"activity change, negative = inhibition",[1],inactive: -1.45%
O=P(Nc1nccs1)(c1ccccc1)c1ccccc1,"activity change, negative = inhibition",[1],inactive: -6.79%
c1nnnn1CCn1cnnn1,"activity change, negative = inhibition",[1],inactive: -0.0427%
CN1CCC[C@H](OC(=O)C(c2ccccc2)c2ccccc2)C1,"activity change, negative = inhibition",[1],inactive: 0.724% [at 11.5 µM]
C[C@@H](O)COc1ccc([As](=O)(O)O)cc1N,"activity change, negative = inhibition",[1],inactive: -2.4% [at 11.5 µM]
O=P1(Nc2nc3ccc(Cl)cc3s2)COc2ccccc2O1 (configuration not stated),"activity change, negative = inhibition",[1],inactive: -0.164%
COC(=O)c1cc2c(s1)N=C(c1ccccc1)N(C)P2(=O)N1CCOCC1 (configuration not stated),"activity change, negative = inhibition",[1],inactive: -1.55%
CCOP1(=S)c2c(C)nn(CCC#N)c2N=C(c2ccccc2F)N1C (configuration not stated),"activity change, negative = inhibition",[1],inactive: -0.815%
O=P(Nc1nccs1)(c1ccccc1)c1nc2ccccc2s1 (configuration not stated),"activity change, negative = inhibition",[1],inactive: -0.0607%
O=[As](O)(O)c1ccc([As](=O)(O)O)cc1,"activity change, negative = inhibition",[1],inactive: -3.74% [at 11.5 µM]
NC(=O)Nc1ccc([As](=O)(O)O)cc1,"activity change, negative = inhibition",at 25.7 µM (top of the series),inactive: -0.813%
same,"activity change, negative = inhibition",at 57.5 µM (top of the series),inactive: -2.7%
CCOP1(=S)c2c(C)nn(CCC#N)c2N=C(c2ccc(F)cc2)N1C (configuration not stated),"activity change, negative = inhibition",[1],inactive: 1.17%
NS(=O)(=O)Cc1ccc([As](=O)(O)O)cc1,"activity change, negative = inhibition",[1],inactive: -1.05% [at 11.5 µM]
O=C(CC(=O)c1ccccc1)O[C@H]1CN2CCC1CC2,"activity change, negative = inhibition",[1],inactive: 0.592% [at 11.5 µM]
CN(C(=O)Cc1ccc(Cl)c(Cl)c1)[C@@H]1CC[C@@]2(CCCO2)C[C@H]1N1CCCC1,"activity change, negative = inhibition",[1],inactive: 1.96%
O=P1(Nc2ccccn2)COc2ccccc2OC1,"activity change, negative = inhibition",[1],inactive: -1.14%
CN(CCCl)Cc1cc(Cl)c(NC2=NCCN2)c(Cl)c1,"activity change, negative = inhibition",[1],inactive: 0.944%
Clc1n[nH]nc1-c1nn[nH][15n]1,"activity change, negative = inhibition",[1],inactive: 1.98%
CN(C(=O)Cc1ccc(Cl)c(Cl)c1)[C@@H]1CCCC[C@H]1N1CCCC1,"activity change, negative = inhibition",[1],inactive: -1.46% [middle of 4 runs]
Cc1nn(-c2ccccc2)c2c1P(=O)(N1CCOCC1)N(C)C(c1ccccc1)=N2 (configuration not stated),"activity change, negative = inhibition",[1],inactive: 0.938%
O=P1(Nc2ncccn2)COc2ccccc2OC1,"activity change, negative = inhibition",[1],inactive: 1.19%
O=P1(Nc2ccc(Br)cn2)COc2ccccc2OC1,"activity change, negative = inhibition",[1],inactive: 1.06%
CN(N=O)C(=N)N[N+](=O)[O-],"activity change, negative = inhibition",[1],inactive: -1.85%
COP1(=S)c2c(C)nn(CCC#N)c2N=C(c2ccc(F)cc2)N1C (configuration not stated),"activity change, negative = inhibition",[1],inactive: 1.37%
O=C(COc1ccccc1)OC1CN2CCC1CC2 (configuration not stated),"activity change, negative = inhibition",[1],inactive: 2.32%
O=C(O)[C@@H](O)c1ccc([As](=O)(O)O)cc1,"activity change, negative = inhibition",[1],inactive: 4.33% [at 11.5 µM]
O=C(OC1CN2CCC1CC2)C12CC3CC(CC(C3)C1)C2 (configuration not stated),"activity change, negative = inhibition",[1],inactive: -2.14%
NC(=O)Nc1cc([As](=O)(O)O)cc(I)c1O,"activity change, negative = inhibition",[1],inactive: -0.459% [at 11.5 µM]
O=[As]c1ccc(S(=O)(=O)NCCO)cc1 (configuration not stated),"activity change, negative = inhibition",[1],inactive: 0.291% [at 11.5 µM]
[N-]=[N+]=NCC(N)=O,"activity change, negative = inhibition",[1],inactive: 0.475% [at 11.5 µM]
